Membrane permeability of cyclic peptides

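The data file gives no further conditions (lipid, pH, time, direction or concentration), and values from different papers need not be comparable. The list need not hold all peptides of the study. Entries at the database's floor value (log10 P of -10) are not listed.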

PAMPA is the parallel artificial membrane permeability assay, which has no cells and reads passive diffusion.
P is given in units of 10^-6 cm/s (from log10 values with two decimals); larger means faster passage.

structure (SMILES) | PAMPA (10^-6 cm/s)
CC(=O)N1CCC[C@H]1C(=O)N(C)[C@@H](CC(C)C)C(=O)N[C@@H]1C(=O)N[C@H](CC(C)C)C(=O)N[C@H](CC(C)C)C(=O)N(C)[C@H](CC(C)C)C(=O)N(C)[C@H](C)C(=O)N[C@@H](CC(C)C)C(=O)N2CCC[C@H]2C(=O)O[C@@H]1C | 0.74
CC(=O)N1CCC[C@@H]1C(=O)N(C)[C@H](CC(C)C)C(=O)N[C@@H]1C(=O)N(C)[C@@H](CC(C)C)C(=O)N[C@@H](CC(C)C)C(=O)N(C)[C@H](CC(C)C)C(=O)N(C)[C@@H](C)C(=O)N[C@@H](CC(C)C)C(=O)N2CCC[C@@H]2C(=O)O[C@@H]1C | 3.9
CC(=O)N1CCC[C@H]1C(=O)N[C@@H]1C(=O)N[C@H](CC(C)C)C(=O)N[C@@H](CC(C)C)C(=O)N[C@H](CC(C)C)C(=O)N[C@@H](CC(C)C)C(=O)N[C@@H](C)C(=O)N[C@@H](CC(C)C)C(=O)N2CCC[C@@H]2C(=O)O[C@@H]1C | 0.35
CC(=O)N1CCC[C@H]1C(=O)N(C)[C@@H](CC(C)C)C(=O)N[C@@H]1C(=O)N[C@@H](CC(C)C)C(=O)N(C)[C@@H](CC(C)C)C(=O)N[C@@H](CC(C)C)C(=O)N(C)[C@@H](C)C(=O)N[C@@H](CC(C)C)C(=O)N2CCC[C@@H]2C(=O)O[C@@H]1C | 0.93
CC(=O)N1CCC[C@H]1C(=O)N[C@@H]1C(=O)N(C)[C@H](CC(C)C)C(=O)N(C)[C@H](CC(C)C)C(=O)N(C)[C@@H](CC(C)C)C(=O)N(C)[C@H](CC(C)C)C(=O)N(C)[C@H](C)C(=O)N[C@@H](CC(C)C)C(=O)N2CCC[C@@H]2C(=O)O[C@@H]1C | 8.9
CC(=O)N1CCC[C@H]1C(=O)N(C)[C@H](CC(C)C)C(=O)N[C@@H]1C(=O)N(C)[C@@H](CC(C)C)C(=O)N[C@@H](CC(C)C)C(=O)N(C)[C@H](CC(C)C)C(=O)N(C)[C@@H](C)C(=O)N[C@@H](CC(C)C)C(=O)N2CCC[C@@H]2C(=O)O[C@@H]1C | 5.1
CC(=O)N1CCC[C@@H]1C(=O)N(C)[C@@H](CC(C)C)C(=O)N[C@@H]1C(=O)N[C@@H](CC(C)C)C(=O)N(C)[C@@H](CC(C)C)C(=O)N[C@H](CC(C)C)C(=O)N(C)[C@H](C)C(=O)N[C@@H](CC(C)C)C(=O)N2CCC[C@@H]2C(=O)O[C@@H]1C | 6.9
CC(=O)N1CCC[C@@H]1C(=O)N(C)[C@H](CC(C)C)C(=O)N[C@@H]1C(=O)N[C@@H](CC(C)C)C(=O)N[C@H](CC(C)C)C(=O)N(C)[C@H](CC(C)C)C(=O)N[C@@H](C)C(=O)N[C@H](CC(C)C)C(=O)N2CCC[C@@H]2C(=O)O[C@@H]1C | 0.065
CC(=O)N1CCC[C@@H]1C(=O)N(C)[C@H](CC(C)C)C(=O)N[C@@H]1C(=O)N[C@H](CC(C)C)C(=O)N(C)[C@@H](CC(C)C)C(=O)N[C@@H](CC(C)C)C(=O)N(C)[C@H](C)C(=O)N[C@H](CC(C)C)C(=O)N2CCC[C@@H]2C(=O)O[C@@H]1C | 1.4
CC(=O)N1CCC[C@H]1C(=O)N(C)[C@@H](CC(C)C)C(=O)N[C@@H]1C(=O)N[C@@H](CC(C)C)C(=O)N[C@@H](CC(C)C)C(=O)N[C@H](CC(C)C)C(=O)N(C)[C@@H](C)C(=O)N[C@@H](CC(C)C)C(=O)N2CCC[C@H]2C(=O)O[C@@H]1C | 3
CC(=O)N1CCC[C@H]1C(=O)N(C)[C@@H](CC(C)C)C(=O)N[C@@H]1C(=O)N[C@H](CC(C)C)C(=O)N[C@@H](CC(C)C)C(=O)N(C)[C@H](CC(C)C)C(=O)N(C)[C@H](C)C(=O)N[C@@H](CC(C)C)C(=O)N2CCC[C@@H]2C(=O)O[C@@H]1C | 4.1
CC(=O)N1CCC[C@@H]1C(=O)N(C)[C@H](CC(C)C)C(=O)N[C@@H]1C(=O)N[C@@H](CC(C)C)C(=O)N[C@H](CC(C)C)C(=O)N[C@H](CC(C)C)C(=O)N[C@@H](C)C(=O)N[C@H](CC(C)C)C(=O)N2CCC[C@H]2C(=O)O[C@@H]1C | 0.079

The first 2 entries again:

{"smiles": "CC(=O)N1CCC[C@H]1C(=O)N(C)[C@@H](CC(C)C)C(=O)N[C@@H]1C(=O)N[C@H](CC(C)C)C(=O)N[C@H](CC(C)C)C(=O)N(C)[C@H](CC(C)C)C(=O)N(C)[C@H](C)C(=O)N[C@@H](CC(C)C)C(=O)N2CCC[C@H]2C(=O)O[C@@H]1C", "PAMPA (10^-6 cm/s)": "0.74"}
{"smiles": "CC(=O)N1CCC[C@@H]1C(=O)N(C)[C@H](CC(C)C)C(=O)N[C@@H]1C(=O)N(C)[C@@H](CC(C)C)C(=O)N[C@@H](CC(C)C)C(=O)N(C)[C@H](CC(C)C)C(=O)N(C)[C@@H](C)C(=O)N[C@@H](CC(C)C)C(=O)N2CCC[C@@H]2C(=O)O[C@@H]1C", "PAMPA (10^-6 cm/s)": "3.9"}

Collected by the curators of CycPeptMPDB (Li et al. 2023) from Kelly et al. 2021, doi:10.1021/jacs.0c06115.